Tested on: Hepatitis C virus replicon (1b) in Clone A cells
Assay: HCV replicon ELISA in Clone A cells (Huh-7 derived)
Type: cell-based
Conditions: 3 days
Procedure: The ability of the compounds of the present invention to inhibit Hepatitis C virus replicon constitutively expressed in a human liver cell line was established by the following experimental procedure:
Clone A cells (licensed from Apath, LLC) are derived from Huh-7 cells (human hepatoma cell line) and constitutively express the HCV replication proteins with concomitant amplification the HCV replicon (1b) genome. Cells are maintained and passaged in DMEM/10% FCS/1 mg/ml G418 (Geneticin from Gibco #11811-023; other media components as described below in “Elisa media”). Care is taken to maintain cell monolayers at a subeonfluent state by 1:3 or 1:4 passages every 3-4 days. The replicon is extremely sensitive to the cellular metabolism/proliferation state and replicon copy number will rapidly decline in confluent monolayers (resting cells). Under ideal conditions each cell has, on average, 1000 copies of the HCV replicon genome.
10 μl of compounds (in DMSO) are added to column 3 of the mother plate. 5 μl of DMSO are added to the remaining columns. Mother plates are set aside until ready for serial dilution to be performed.
Prepare cell plates (daughter plates) by adding 52 μl of Elisa media to each well.
In Mother plates, serially transfer 50 μl/well from column 3 through column 12. […]
Read plates with optical density (O.D.) 450 filter. […]

Interferon-a2: reference compound of the HCV replicon ELISA assay
IC50 in replicon ELISA (reference compound): 4-30 U/ml

From patent US20070276030A1, “Pyranobenzothiophene derivatives to treat infection with hepatitis c virus” (priority 2003, published 2007)
